# Assay results as given in patent US12163953B2, “P-phenylene ethynylene compounds as bioactive and detection agents” (STC.UNM, priority 2014, dated 2024).
# Amino acid sequences for entries named in this document (tags omitted). Residues count along the entry.
# UniProt P00698, 19-147 limits assumed: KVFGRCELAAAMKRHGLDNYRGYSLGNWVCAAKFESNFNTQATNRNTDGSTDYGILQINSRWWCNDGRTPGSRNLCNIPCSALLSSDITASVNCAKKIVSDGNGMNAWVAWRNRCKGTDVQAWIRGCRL
# Read-outs that look alike come from different tables or passages of the source.
# Experiments:
# [1] = Photophysical properties of PEs alone (excitation/emission spectra, fluorescence yield); type: physicochemical
# Protocol: Excitation and emission spectra of PEs in phosphate buffer alone, with monomeric HEWL and with HEWL amyloids (8 h incubated) are shown in FIGS. 18A-H, and relevant photophysical properties are summarized in Table 1. FIGS. 18A-H illustrate excitation (A, B, C, D) and emission (right; E, F, G. H) spectra of PEs (A, E: PE1+; B, F: PE1−; C, G: PE2+; D, H: […]) alone (long dashed line) with HEWL monomers (short dashed line) and with HEWL amyloids (solid line); PE concentration: 500 nM, protein concentration: 5 μM monomer basis/0.25 mg/mL; emission and excitation wavelengths, respectively, were chosen as shown in Table 1 for each sample. A 10:1 molar ratio of protein to PE was used for these experiments. Absorbance spectra were taken, but background light scattering from insoluble amyloid aggregates made them difficult to interpret, so “fluorescence detected absorbance” in the form of excitation spectra was used instead. Normalized excitation and emission spectra, in which peak shifts and lineshape changes of spectra were somewhat easier to visualize, were used. […] PE1+ (FIG. 18E) had no change in wavelength or lineshape of emission spectrum, just a large increase in intensity when mixed with amyloids. The excitation spectra (FIGS. 18A, B, C, D) show a notable bathochromic shift for each PE in solution mixed with amyloid, of 23, 27, 35 and 29 nm for PE1+, PE2+, PE3+ and PE1−, respectively, observing only the low-energy band. The high-energy band, less relevant for imaging purposes, was also bathochromically shifted. […] PE1− had similar excitation spectrum (FIG. 18B) with monomer and amyloid, except for a large intensity difference.
# (§1) For studies of fluorescence enhancement vs. protein incubation time, dyes were mixed with protein sample in phosphate buffer (10 mM, pH 7.4) at equal monomer concentration of 10 μM in the wells of a standard 96-well plate. Emission spectra were obtained using top read with a SpectraMax M2e plate-reading spectrophotometer (Molecular Devices, Sunnyvale, CA). Experiments were performed in duplicate and errors are reported as standard deviation. For analysis of bound PE excitation and emission spectra and protein-PE energy transfer, PEs (500 nM) were mixed with protein sample (5 μM, monomer basis) in phosphate buffer and the solution transferred to a quartz, fluorometry cuvette. Spectra were obtained on a PTI QuantaMaster 40 steady state spectrofluorometer (HORIBA Scientific, Edison, NJ).
# HEWL amyloid fibrils = HEWL amyloid fibrils (Gallus gallus, UniProt P00698); assay: Induced circular dichroism of PE-amyloid complexes; type: binding, hen; details: PEs 10 μM, HEWL 10 μM monomer basis
# Protocol: Circular dichroism measurements were performed to determine if the intrinsic chirality of the HEWL fibrils was transferred to the PE chromophore by a chiral backbone twist or an “excitonic” chiral supramolecular aggregate. CD spectroscopy (CPEs in PB with HEWL monomer and with HEWL amyloid; performed for (a): PE1+; (b): PE1−; (c): PE2+; (d): PE3+; PEs 10 μM, HEWL 10 μM monomer basis/0.5 mg/mL) indicated induced circular dichroism of PEs when bound to HEWL amyloids. As expected, no PE had optical activity by itself in phosphate buffer solution and none of the PEs had any CD with HEWL monomer, including PE1−. […] PE1−, PE2+ and PE3+ all had strong induced CD with a negative Cotton effect when bound to HEWL amyloid fibrils. PE2+ and PE3+ gave rise to similar CD spectra, with more intense bands in the spectrum for PE3+.
# PEs and protein samples were diluted in phosphate buffer, gently vortexed, and read in a 1 mm pathlength quartz CD cuvette using an Aviv 410 CD spectrometer (Aviv Biomedical, Lakewood, NJ), 15 s averaging time. A blank spectrum (PB only) was subtracted from each sample to remove background activity. Error bars are standard deviation over multiple reads of a single sample as reported by the instrument.
# [2] = target: HEWL fibrils incubated for different lengths of time (Gallus gallus, UniProt P00698); assay: Fluorescence enhancement of dyes versus HEWL incubation time; type: binding, hen; details: dye 10 μM, HEWL 10 μM monomer basis
# Protocol: Hen egg white lysozyme (HEWL) was used to form fibrillary amyloid aggregates for use in this study. […] For these experiments. HEWL (Sigma-Aldrich) was incubated at 70′C and a concentration of 350 μM in pH 3 sodium citrate buffer (10 mM) with 100 mM NaCl.
# A plot of normalized fluorescence enhancement for all four PEs and Thioflavin T with HEWL fibrils incubated for different lengths of time is shown in FIG. 15. PE1+ and PE2+ track amyloid formation in roughly the same way as ThT, showing a sigmoidal curve with onset of a logarithmic growth phase occurring at the same time, around 1 hour of incubation. The plateau phase, as monitored by fluorescence of any of those three PEs or ThT, appeared at 2 hours incubation. […] PE1− has greater fluorescence enhancement when mixed with monomeric species than with amyloid at the equimolar concentrations used for this assay.
# For studies of fluorescence enhancement vs. protein incubation time, dyes were mixed with protein sample in phosphate buffer (10 mM, pH 7.4) at equal monomer concentration of 10 μM in the wells of a standard 96-well plate. Emission spectra were obtained using top read with a SpectraMax M2e plate-reading spectrophotometer (Molecular Devices, Sunnyvale, CA). Experiments were performed in duplicate and errors are reported as standard deviation. […]
# HEWL amyloids = HEWL amyloids (Gallus gallus, UniProt P00698); assay: Excitation and emission spectra of PEs with HEWL amyloids; type: binding, hen; details: PE 500 nM, HEWL amyloid 5 μM monomer basis
# Protocol: Excitation and emission spectra of PEs in phosphate buffer alone, with monomeric HEWL and with HEWL amyloids (8 h incubated) are shown in FIGS. 18A-H, and relevant photophysical properties are summarized in Table 1. FIGS. 18A-H illustrate excitation (A, B, C, D) and emission (right; E, F, G. H) spectra of PEs (A, E: PE1+; B, F: PE1−; C, G: PE2+; D, H: PE3+) in phosphate buffer (PB, pH 7.4, 10 mM) alone (long dashed line) with HEWL monomers (short dashed line) and with HEWL amyloids (solid line); PE concentration: 500 nM, protein concentration: 5 μM monomer basis/0.25 mg/mL; emission and excitation wavelengths, respectively, were chosen as shown in Table 1 for each sample. A 10:1 molar ratio of protein to PE was used for these experiments. Absorbance spectra were taken, but background light scattering from insoluble amyloid aggregates made them difficult to interpret, so “fluorescence detected absorbance” in the form of excitation spectra was used instead. Normalized excitation and emission spectra, in which peak shifts and lineshape changes of spectra were somewhat easier to visualize, were used. […] PE1+ (FIG. 18E) had no change in wavelength or lineshape of emission spectrum, just a large increase in intensity when mixed with amyloids. The excitation spectra (FIGS. 18A, B, C, D) show a notable bathochromic shift for each PE in solution mixed with amyloid, of 23, 27, 35 and 29 nm for PE1+, PE2+, PE3+ and PE1−, respectively, observing only the low-energy band. The high-energy band, less relevant for imaging purposes, was also bathochromically shifted. […] PE1− had similar excitation spectrum (FIG. 18B) with monomer and amyloid, except for a large intensity difference.
# Lyophilized HEWL was dissolved at 10 mg/mL in 10 mM pH 3 sodium citrate buffer with 0.1 M NaCl. The solution was incubated in a 70C oil bath and magnetically stirred at 250 rpm for 12 h, and aliquots were withdrawn at half-hour intervals. […] Half of each aliquot was immediately diluted into pH 7.4 phosphate buffer to prevent further influence of acidic conditions and stored at 4C.
# as §1, with “Spectra were obtained on a PTI QuantaMaster 40 steady state spectrofluorometer (HORIBA Scientific, Edison, NJ).” left out
# HEWL amyloid = HEWL amyloid (Gallus gallus, UniProt P00698); assay: Binding saturation assay of PEs to HEWL amyloid (Hill fit); set-up: species or system hen
# Protocol: Next, binding saturation assays were conducted to quantify the affinity of PE-amyloid binding; data and fitted curves were produced and the fitted parameters are summarized in the last two columns of Table 1. Since the linear fibril binding sites could fit many PEs, fits to binding curves were performed to the Hill equation to capture possible binding cooperativity:
# [formula] where x is PE concentration (with protein concentration fixed), y is PE fluorescence intensity. […] Fits to the data for the three cationic PEs produced Fmax values close to the observed saturation value, and the other two parameters are reported as calculated. […] Furthermore, the cooperativity of PE binding increased from almost no cooperativity for PE1+, to some positive cooperativity for PE2+, to still more positive cooperativity for PE3+. The quantitative physical meaning of the Hill parameter is not quite clear except in special cases, but in a general way it is possible to conclude that for the cationic PEs, the shortest PE has non-cooperative binding to HEWL amyloid (Michaelis-Menten binding), and the two longer PEs have increasingly positively cooperative binding. […] The effect of PE1− non-specific binding to HEWL monomers precluded accurate determination of a binding constant for PE1−/amyloid interactions such that a quantitative comparison of binding between the cationic and anionic compounds could not be made.
# For determination of binding constant of PEs to amyloid aggregates, PEs were mixed with HEWL amyloid in phosphate buffer at a final concentration of 100 nM-5 μM for PEs and 5 μM (monomer basis) for protein. The solutions were then transferred to a quartz fluorometry cuvette and emission measured at the pertinent wavelength. […] Hill function fits to PE binding curves were calculated in OriginPro 9.
# [3] = phosphate buffer pH 7.4, 10 mM, PE 500 nM
compound,measurement,setting,value
CCOC(=O)c1ccc(C#Cc2cc(OCC[N+](C)(C)C)c(C#Cc3ccc(C(=O)OCC)cc3)cc2OCC[N+](C)(C)C)cc1,λem (H2O),[1]; H2O,454 nm
same,φfl (H2O),[1]; H2O,0.023
same,φfl (MeOH),[1]; MeOH,0.75
same,λem (PB),[1]; phosphate buffer,454 nm
same,"λex (PB), high-energy band",[1]; [3],314 nm
same,"λex (PB), low-energy band",[1]; [3],362 nm
same,induced circular dichroism with HEWL amyloid,HEWL amyloid fibrils,did not have optical activity
same,HEWL incubation time at which the plateau phase of fluorescence enhancement appears,[2],2 h
same,"bathochromic shift of excitation spectrum, low-energy band, with amyloid",HEWL amyloids,23 nm
same,λem (PB w/ HEWL),HEWL amyloids; PB,454 nm
same,"λex (PB w/HEWL), high-energy band",HEWL amyloids; PB,332 nm
same,"λex (PB w/HEWL), low-energy band",HEWL amyloids; PB,385 nm
same,Hill coeffi.,HEWL amyloid; PE binding to HEWL amyloid,1.04
same,Kd,"HEWL amyloid; read-out: Kd (apparent binding constant to HEWL amyloid), PE 100 nM-5 μM, protein 5 μM monomer basis, PB",2630 nM
same,Kd,"HEWL amyloid; read-out: calculated dissociation constant, HEWL amyloid, Hill fit",2600 nM
